Test results as given in PubChem BioAssay AID1016 (Sanford-Burnham Center for Chemical Genomics, 2008).
The entries are a selection whose mix differs from that of the whole data set. Activity calls are given as the source filed them.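 Rule for the calls: active = activation factor of 2 or more at 20 µM, a signal rise over negative controls twice the positive control's; inactive = the rest.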

system: alkaline phosphatase, intestinal [Bos taurus]; test: IAP enzyme activity enhancers – biochemical, bovine IAP, CDP-star luminescence, primary screen (AID 1016); settings: purified bovine IAP, 30 min, at 20 µM, stronger effect = higher value, fold of DMSO-control signal, blank-subtracted

Compound	activation factor
COc1ccc(CN(CCCl)CCCl)cc1Cl	inactive: 1.2
CN(C)c1cccc(C(=O)NCC2(N3CCCCC3)CCCCC2)c1	inactive: 1.2
CC(C)c1ccc(NC2CCN(C(=O)OC(C)(C)C)CC2)cc1	inactive: 1.1
COc1ccc(NC2CCN(C(=O)OC(C)(C)C)CC2)cc1	inactive: 1.1
CN1CCN(CCOC(=O)C(O)(c2ccccc2)c2ccccc2)CC1	inactive: 1
O=C(NCC1(N2CCOCC2)CCCCC1)c1cc(=O)[nH]c2ccccc12	inactive: 1
O=C(NCC1(N2CCCCC2)CCCCC1)c1cccc([N+](=O)[O-])c1	inactive: 0.9
N#CC1(Nc2ccccc2)CCN(CCc2ccccc2)CC1	inactive: 1
COc1ccc(NC2CCN(CCc3ccccc3)CC2)c(OC)c1	inactive: 1.1
O=C(NCC1(N2CCOCC2)CCCCC1)c1cc2ccccc2o1	inactive: 0.9
CCOC(=O)N1CCC(Nc2ccc(OC)cc2)CC1	inactive: 1
O=C(OC1CN2CCC1CC2)C1c2ccccc2Oc2ccccc21 (stereo not given)	inactive: 1.1
COc1ccc(C(=O)NCC2(N3CCCCC3)CCCCC2)c(OC)c1OC	inactive: 1.3
CCC(CO)(C(=O)OC1CN2CCC1CC2)c1ccccc1 (stereo not given)	inactive: 1.1
COc1cc(OC)cc(C(=O)NCC2(N3CCOCC3)CCCCC2)c1	inactive: 1
CCOc1ncccc1C(=O)NCC1(N2CCOCC2)CCCCC1	inactive: 1
CC(C)(C)OC(=O)N1CCC(Nc2ccccc2)CC1	inactive: 1.1
CCN1CCC(Nc2cccc(F)c2)CC1	inactive: 0.9
CN(C)c1ccc(C(=O)NCC2(N3CCCCC3)CCCCC2)cc1	inactive: 1.1
Fc1ccccc1NC1CCN(Cc2ccccc2)CC1	inactive: 1.1
c1ccc(CN2CCC(Nc3ccccc3)CC2)cc1	inactive: 1
N#Cc1ccc(C(=O)NCC2(N3CCCCC3)CCCCC2)cc1	inactive: 1.1
N/C(=N\O)c1c(N)no[n+]1[O-]	inactive: 0.9
O=C(OC1CN2CCC1CC2)C1c2ccccc2C=Cc2ccccc21 (stereo not given)	inactive: 0.8
COc1ccc(C(=O)NCC2(N3CCOCC3)CCCCC2)cc1OC	inactive: 0.9
